In patent publication US9707274B2, “Methods for preventing and treating post-traumatic stress disorder (PTSD)” (priority 2007, dated 2017):
Several values for one entry are separate records, joined by “and”; a condition that tells them apart may be missing. Equal values may be shown once. Read-outs that look alike come from different tables or passages of the source.

Details: for Concentration of KTP, Blood / Concentration of KTP, Caudate/Putamen / Concentration of KTP, Cerebellum / Concentration of KTP, Cerebrospinal Fluid / Concentration of KTP, Frontal Cortex / Concentration of KTP, Heart / Concentration of KTP, Hippocampus / Concentration of KTP, Hypothalamus / Concentration of KTP, Kidney / Concentration of KTP, Liver / Concentration of KTP, Medulla / Concentration of KTP, Muscle / Concentration of KTP, Olfactory Bulbs / Concentration of KTP, Olfactory Epithelium / Concentration of KTP, Parietal Cortex / Concentration of KTP, Pons / Concentration of KTP, Respiratory Epithelium / Concentration of KTP, Septal Nucleus / Concentration of KTP, Spinal Cord Cervical / Concentration of KTP, Spinal Cord Lumbar / Concentration of KTP, Spinal Cord Thoracic / Concentration of KTP, Spleen / Concentration of KTP, Superficial Cervical Nodes / Concentration of KTP, Thalamus / Concentration of KTP, Ventral Meninges / KTP targeting, increase vs intranasal KTP control, dorsal meninges / KTP targeting, increase vs intranasal KTP control, ventral meninges / KTP targeting, increase vs intranasal KTP control, cervical lymph nodes / KTP targeting, increase vs intranasal KTP control, superficial nodes / Concentration of KTP, Anterior Olfactory Nucleus / Concentration of KTP, Carotid Artery / Concentration of KTP, Deep Cervical Nodes / Concentration of KTP, Dorsal Meninges / Concentration of KTP, Spinal Meninges / Concentration of KTP, Trigeminal Nerve: 30 min; for KTP targeting, increase vs intranasal KTP control, cervical lymph nodes / KTP targeting, increase vs intranasal KTP control, superficial nodes: data not shown
[1] = intranasal KTP control (no PHE), rats

## L-tyrosine-D-arginine [KTP]
Intranasal KTP + 1% PHE vs intranasal KTP control
  Reduction of KTP blood concentration at 30 minutes: 56%
Intranasal KTP + 1% PHE, rats
  Concentration of KTP, Blood: 5.1 nM and 5.12 ± 0.47 nM
  Concentration of KTP, Caudate/Putamen: 0.88 ± 0.13 nM
  Concentration of KTP, Cerebellum: 0.87 ± 0.12 nM
  Concentration of KTP, Cerebrospinal Fluid: 0.3 nM
  Concentration of KTP, Frontal Cortex: 1.34 ± 0.20 nM
  Concentration of KTP, Heart: 0.81 ± 0.08 nM
  Concentration of KTP, Hippocampus: 0.89 ± 0.12 nM
  Concentration of KTP, Hypothalamus: 1.66 ± 0.26 nM
  Concentration of KTP, Kidney: 7.19 ± 1.90 nM
  Concentration of KTP, Liver: 1.70 ± 0.23 nM
  Concentration of KTP, Medulla: 0.89 ± 0.14 nM
  Concentration of KTP, Muscle: 1.42 ± 0.23 nM
  Concentration of KTP, Olfactory Bulbs: 12.85 ± 3.28 nM
  Concentration of KTP, Olfactory Epithelium: 5754 ± 1165 nM
  Concentration of KTP, Parietal Cortex: 1.13 ± 0.16 nM
  Concentration of KTP, Pons: 0.86 ± 0.13 nM
  Concentration of KTP, Respiratory Epithelium: 36853 ± 5734 nM
  Concentration of KTP, Septal Nucleus: 1.24 ± 0.12 nM
  Concentration of KTP, Spinal Cord Cervical: 0.64 ± 0.17 nM
  Concentration of KTP, Spinal Cord Lumbar: 0.46 ± 0.06 nM
  Concentration of KTP, Spinal Cord Thoracic: 0.52 ± 0.10 nM
  Concentration of KTP, Spleen: 1.26 ± 0.14 nM
  Concentration of KTP, Superficial Cervical Nodes: 21 nM and 20.89 ± 3.39 nM
  Concentration of KTP, Thalamus: 0.86 ± 0.11 nM
  Concentration of KTP, Ventral Meninges: 20.45 ± 2.91 nM
  KTP targeting, increase vs intranasal KTP control, dorsal meninges: 2.3 fold
  KTP targeting, increase vs intranasal KTP control, ventral meninges: 3.6 fold
  KTP targeting, increase vs intranasal KTP control, cervical lymph nodes: 3.0 fold
  KTP targeting, increase vs intranasal KTP control, superficial nodes: 5.1 fold
Intranasal KTP + 5% PHE vs intranasal KTP control
  Reduction of KTP blood concentration at 30 minutes: 66%
Intranasal KTP + 5% PHE, rats
  Concentration of KTP, Anterior Olfactory Nucleus: 2.70 ± 0.42 nM
  Concentration of KTP, Carotid Artery: 165.44 ± 56.57 nM
  Concentration of KTP, Caudate/Putamen: 1.08 ± 0.29 nM
  Concentration of KTP, Cerebellum: 1.37 ± 0.29 nM
  Concentration of KTP, Deep Cervical Nodes: 93.59 ± 12.01 nM
  Concentration of KTP, Dorsal Meninges: 6.43 ± 1.65 nM
  Concentration of KTP, Frontal Cortex: 1.81 ± 0.23 nM
  Concentration of KTP, Heart: 1.15 ± 0.25 nM
  Concentration of KTP, Hippocampus: 0.98 ± 0.20 nM
  Concentration of KTP, Hypothalamus: 3.64 ± 1.31 nM
  Concentration of KTP, Kidney: 7.39 ± 0.98 nM
  Concentration of KTP, Liver: 1.58 ± 0.20 nM
  Concentration of KTP, Medulla: 1.87 ± 0.57 nM
  Concentration of KTP, Muscle: 0.68 ± 0.04 nM
  Concentration of KTP, Olfactory Bulbs: 24.48 ± 4.64 nM
  Concentration of KTP, Olfactory Epithelium: 12492 ± 381 nM
  Concentration of KTP, Parietal Cortex: 1.28 ± 0.22 nM
  Concentration of KTP, Pons: 1.97 ± 0.68 nM
  Concentration of KTP, Respiratory Epithelium: 15908 ± 1702 nM
  Concentration of KTP, Septal Nucleus: 1.27 ± 0.21 nM
  Concentration of KTP, Spinal Cord Cervical: 1.37 ± 0.40 nM
  Concentration of KTP, Spinal Cord Lumbar: 0.45 ± 0.03 nM
  Concentration of KTP, Spinal Cord Thoracic: 0.50 ± 0.07 nM
  Concentration of KTP, Spinal Meninges: 2.88 ± 0.77 nM
  Concentration of KTP, Spleen: 1.49 ± 0.16 nM
  Concentration of KTP, Superficial Cervical Nodes: 13 nM and 13.24 ± 1.32 nM
  Concentration of KTP, Thalamus: 1.49 ± 0.49 nM
  Concentration of KTP, Trigeminal Nerve: 8.63 ± 1.61 nM
  Concentration of KTP, Ventral Meninges: 20.22 ± 4.50 nM
  KTP targeting, increase vs intranasal KTP control, dorsal meninges: 3.2 fold
  KTP targeting, increase vs intranasal KTP control, ventral meninges: 3.4 fold
  KTP targeting, increase vs intranasal KTP control, cervical lymph nodes: 4.8 fold
  KTP targeting, increase vs intranasal KTP control, superficial nodes: 4.6 fold
[1]
  Concentration of KTP, Anterior Olfactory Nucleus: 2.42 ± 0.26 nM
  Concentration of KTP, Blood: 11.7 nM and 11.68 ± 1.33 nM
  Concentration of KTP, Carotid Artery: 155.55 ± 77.26 nM
  Concentration of KTP, Caudate/Putamen: 2.13 ± 0.22 nM
  Concentration of KTP, Cerebellum: 2.10 ± 0.09 nM
  Concentration of KTP, Cerebrospinal Fluid: 0.5 nM and 0.49 ± 0.09 nM
  Concentration of KTP, Deep Cervical Nodes: 61.58 ± 18.42 nM
  Concentration of KTP, Dorsal Meninges: 4.34 ± 0.71 nM
  Concentration of KTP, Frontal Cortex: 2.24 ± 0.23 nM
  Concentration of KTP, Heart: 1.46 ± 0.20 nM
  Concentration of KTP, Hippocampus: 1.90 ± 0.20 nM
  Concentration of KTP, Hypothalamus: 2.63 ± 0.25 nM
  Concentration of KTP, Kidney: 49.54 ± 9.46 nM
  Concentration of KTP, Liver: 6.38 ± 1.12 nM
  Concentration of KTP, Medulla: 1.87 ± 0.20 nM
  Concentration of KTP, Muscle: 2.20 ± 0.22 nM
  Concentration of KTP, Olfactory Bulbs: 4.33 ± 0.59 nM
  Concentration of KTP, Olfactory Epithelium: 1988 ± 676 nM
  Concentration of KTP, Parietal Cortex: 2.53 ± 0.12 nM
  Concentration of KTP, Pons: 1.90 ± 0.09 nM
  Concentration of KTP, Respiratory Epithelium: 21419 ± 2564 nM
  Concentration of KTP, Septal Nucleus: 2.09 ± 0.16 nM
  Concentration of KTP, Spinal Cord Cervical: 1.62 ± 0.40 nM
  Concentration of KTP, Spinal Cord Lumbar: 1.20 ± 0.13 nM
  Concentration of KTP, Spinal Cord Thoracic: 1.27 ± 0.24 nM
  Concentration of KTP, Spinal Meninges: 5.59 ± 1.94 nM
  Concentration of KTP, Spleen: 3.58 ± 0.72 nM
  Concentration of KTP, Superficial Cervical Nodes: 6.5 nM and 6.45 ± 0.62 nM
  Concentration of KTP, Thalamus: 1.83 ± 0.19 nM
  Concentration of KTP, Trigeminal Nerve: 12.54 ± 3.33 nM
  Concentration of KTP, Ventral Meninges: 16.66 ± 3.20 nM
Intravenous infusion over 14 minutes, peak at 10 minutes, rats
  Peak blood concentration of KTP: 83 nM
Intravenous vs intranasal, rats
  KTP blood concentration, intravenous greater than intranasal: 5 fold
